Laboratory results reported in patent publication US5700446A, “Synthesis of ferrocenyl phenyltropane analogs and their radio-transformation to technetium neuroprobes for mapping monoamine reuptake sites” (Neuro Imaging Technologies, LLC, priority 1996, dated 1997).

Amino acid sequences for entries named in this document (tags omitted).
UniProt P23977, whole entry: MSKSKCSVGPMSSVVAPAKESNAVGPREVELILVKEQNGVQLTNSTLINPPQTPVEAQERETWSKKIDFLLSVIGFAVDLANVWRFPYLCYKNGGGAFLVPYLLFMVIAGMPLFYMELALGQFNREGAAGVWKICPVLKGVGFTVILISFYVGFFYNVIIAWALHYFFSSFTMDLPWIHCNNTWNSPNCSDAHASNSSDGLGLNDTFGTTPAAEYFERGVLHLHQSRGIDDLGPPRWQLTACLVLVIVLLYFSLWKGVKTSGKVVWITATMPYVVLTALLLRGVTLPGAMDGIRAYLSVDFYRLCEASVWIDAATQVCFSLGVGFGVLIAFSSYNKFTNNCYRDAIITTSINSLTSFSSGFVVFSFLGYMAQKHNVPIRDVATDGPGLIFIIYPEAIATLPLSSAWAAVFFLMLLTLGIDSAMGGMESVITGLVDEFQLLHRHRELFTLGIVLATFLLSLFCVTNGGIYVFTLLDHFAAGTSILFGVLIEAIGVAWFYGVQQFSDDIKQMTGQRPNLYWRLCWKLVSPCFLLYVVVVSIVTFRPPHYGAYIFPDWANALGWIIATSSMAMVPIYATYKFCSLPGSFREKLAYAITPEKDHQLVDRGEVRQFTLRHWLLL

Assays:
[1] = biological target: T1, dopamine transporter (Rattus norvegicus, UniProt P23977); details: [3H]GBR-12935, 13 Ci/mmol; read-out: Kd (radioligand, dopamine transporter assay); cited from earlier work
T1 construct: crude membrane fraction of homogenates of rat brain corpus striatum (for the dopamine transporter); from tissue; host or cells: rat brain corpus striatum, crude membrane fraction

[2] = biological target: norepinephrine transporter; details: [3H]nisoxetine, 50 Ci/mmol; read-out: Kd (radioligand, norepinephrine transporter assay); cited from earlier work
[3] = biological target: T1, dopamine transporter; assay: Radioreceptor binding assay, dopamine transporter ([3H]GBR-12935), rat brain corpus striatum membranes; details: ratio of Ki for the dopamine transporter to the Ki for the serotonin transporter

c1ccc(CCCN2CCN(CCOC(c3ccccc3)c3ccccc3)CC2)cc1 [[^3 H]GBR-12935]
pKd [1]: 9.00

CNCCC(Oc1ccccc1OC)c1ccccc1 (stereo not drawn) [[^3 H]nisoxetine]
pKd [2]: 9.10

COC(=O)[C@H]1[C@@H](c2ccc(I)cc2)C[C@@H]2CC[C@H]1N2C [β-CIT, 3β-(4-iodophenyl)-2β-(carbomethoxy)tropane, reference compound]
DAT/5-HTT Selectivity [3]: 3.04

pKd: −log10 of the molar value.
